The record followed here is patent US6875741.

The target in this assay is Insulin Receptor (IR) of the BIAcore experiments (UniProt P06213). The experiment in a line: BIAcore, IR 450 nM pre-incubated with 13 µM MBP (negative control), residual binding to immobilised insulin.

In turn, “MBP-lacZ fusion protein (negative control) (from UniProt P0AEX9 27-392)” came in with a Result (RUs) of 209 RU.
